Source: PubChem BioAssay (National Center for Advancing Translational Sciences (NCATS))
PTAP TSG101 blk: blocks PTAP/TSG101 interaction to inhibit HIV-1 budding. Potency, µM (doses to about 115 µM), for the others: top-dose activity change, negative = inhibition, actives largely listed as inhibitors. 340,000 tested, under 10 active. AID 493005. Q99816. Fluorescence polarization, FITC-PTAP peptide / Tsg101 binding; active = well fitted inhibition curve with a large enough effect in the main read-out, with a control signal flat, not every such curve was filed as active; inconclusive = small, poorly fitted or top-dose-only effect, or effect the other way, or a change in a side signal; inactive = no such curve, though single readings can be large or run the other way; note: potency is the fitted concentration of half-maximal effect; % of control where 0% means no effect
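Fluorescence polarization binding of Tsg101 binding domain (10 uM final) to FITC-labeled PTAP peptide (50 nM final) in HEPES pH 7.5 buffer with NaCl, Tween 20, EDTA, TCEP. Compounds added before peptide; binding 20 min at RT.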
Nrf2 block: Nrf2 pathway inhibition. AID 504444. Potency, µM (doses to about 46 µM), without a hit: top-dose activity change, negative = inhibition, usual class: inhibitors. A549 ARE-Fluc reporter, luciferase luminescence, 18-24 h. actives 2.1% (n = 360,000); note: potency is the fitted concentration of half-maximal effect; % is set by controls: 0 for no effect and ±100 for the full control effect; nearly all actives have a fitted effect of over 60% in size
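A549 ARE_Fluc cells, 5000/well, 5% FBS OPTI-MEM; compounds in dose-response, 18-24 h at 37 °C/5% CO2; CellTiter-Fluor viability read (Ex 405/Em 525), then BugLite luciferase luminescence = Nrf2 activity.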
Nrf2 ARE act: activates Nrf2 signaling. AREc32 ARE-luciferase reporter (MCF7-derived line), luminescence, 24 h. Potency, µM (series often up to 46.1 µM), for inactives: top-dose activation, hits mostly activators. actives 0.31% (n = 410,000); note: potency is the fitted concentration of half-maximal effect; % of control where 0% means no effect; nearly all actives have a fitted effect of over 65% in size
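Quantitative high-throughput format: AREc32 reporter cells, 1000 per well, received compound by pin transfer and were incubated 24 hr at 37 deg C, 5% CO2, before Steady-Glo luminescence detection.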
GRP78 ERSR act: inducers of ER stress response in human glioma cells; U87-MG GRP78 promoter luciferase reporter, 16 h; Potency, µM, without a hit: at the top dose activation, actives largely listed as activators; actives 0.02% (n = 420,000); AID 602332; note: potency is the fitted concentration of half-maximal effect; series mostly up to about 76 µM; % of control where 0% means no effect; nearly all actives have a fitted effect of over 35% in size
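Stably transfected U87-MG glioma cells carrying a GRP78-based luciferase sensor; 16 h compound incubation. Luminescence end-point read 10 min after Bright-Glo addition at room temperature.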
A549 viability: kills or reduces viability of A549 cells in Nrf2 counter-screen; AID 504648; actives 0.16% (n = 390,000); Potency, µM (titrated, usually from 46 µM), for inactives: at the top dose activity change, negative = cytotoxicity, usual class: inhibitors; A549 ARE-Fluc cells, CellTiter-Fluor viability, 18-24 h; note: potency is the fitted concentration of half-maximal effect; % is set by controls: 0 for no effect and ±100 for the full control effect
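Cytotoxicity counterscreen: CellTiter-Fluor fluorescence was measured in A549 ARE_Fluc cells after 18-24 h of compound exposure in a concentration series. The subsequent BugLite luminescent read reports ARE-luciferase activity.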
miR-21 reporter: miR-21 reporter, rising signal. 340,000 tested, under 10 active. Potency, µM (highest dose often 38.3 µM), for the others: at the highest dose reporter change, positive = more light. HeLa miR-21 FLuc reporter, luciferase, 48 h. AID 2288; active = well fitted rising curve with a large enough effect; inconclusive = small, poorly fitted or top-dose-only effect; inactive = no such curve, though single readings can be large or run the other way;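 further: % of control where 0% means no effect; miR-21 action dims this reporter so a rising signal means less miR-21 action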
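HeLa cells endogenously expressing miR-21, stably carrying CMV-driven firefly luciferase with a downstream miR-21 binding site, 2000 cells/well. Titrations up to approximately 40 uM, 48 hours; luciferase luminescence read.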
The depositor's hits bear a star; ? = inconclusive; / = no result given; [ ] = another dose, or the depositor's remark. Sampled rows, rich in hits. Any-hit rate of the full collection: about 2.1%. Unless noted, calls come from the whole dose curve; as a rule, active = well fitted curve in the direction sought with a large enough effect; inconclusive = small, poorly fitted or top-dose-only effect, or another doubt; inactive = no such curve, though single readings can be large; an effect the other way counts as inactive or inconclusive.

Abbreviations – A = PTAP TSG101 blk; B = Nrf2 block; C = Nrf2 ARE act; D = GRP78 ERSR act; E = A549 viability; F = miR-21 reporter
#1 O=C(C[C@H]1C[C@H](C(=O)N2CCCCC2)[C@@]2(CCc3ccccc3)c3[nH]c4ccc(Cl)cc4c3CCN2C1=O)NCCc1ccccn1
  A = -2% | B = 21µM* | C = 0% | D = 1% | E = ? | F = /
#2 COc1ccc2[nH]c3c(c2c1)CCN1C(=O)C(CC(=O)NCc2ccco2)C[C@H](C(=O)N2CCCCC2)[C@@]31CCc1ccccc1 (some centres not stated)
  A = -4% | B = 23µM* | C = -1% | D = -2% | E = -26% | F = /
#3 COCCCNC(=O)CC1C[C@H](C(=O)N2CCCCC2)[C@@]2(CCc3ccccc3)c3[nH]c4ccc(OC)cc4c3CCN2C1=O (some centres not stated)
  A = -1% | B = -20% | C = 0% | D = -1% | E = -10% | F = /
#4 CC(C)Cc1nc2cc(NS(=O)(=O)N(C)C)cc(C(=O)N3CC4(C)CC3CC(C)(C)C4)c2n1C (configuration not stated)
  A = / | B = / | C = / | D = -3% | E = / | F = /
#5 COc1ccc(CN2CCOc3c(O)cc(-c4cc(C)c5ccc(F)cc5n4)cc3C2)c(O)c1
  A = / | B = / | C = / | D = -2% | E = / | F = /
#6 COc1cc(-c2cc(C)c3cccc(OC)c3n2)cc2c1OCCN(C(=O)CCn1nc(C)cc1C)C2
  A = / | B = / | C = / | D = 0% | E = / | F = /
#7 Cc1cnc(C)c(-c2cccc3c2OC(CNC(=O)/C=C/c2ccncc2)C3)n1 (configuration not stated)
  A = / | B = / | C = / | D = -4% | E = / | F = /
#8 FC(F)Sc1ccc(-n2cc(-c3ccccc3)[n+]3c2CCC3)cc1
  A = -3% | B = ? | C = -1% | D = 2% | E = -7% | F = 26%
#9 COc1ccc(-n2cc(-c3ccccc3)[n+]3c2CCCCC3)cc1
  A = -1% | B = 8.2µM* | C = 0% | D = 1% | E = -14% | F = ?
#10 CC(=O)Oc1ccc(C(=O)O)cc1OC(C)=O
  A = -8% | B = -8% | C = -1% | D = -3% | E = 1% | F = -4%
#11 CC(=O)Oc1cccc2c1C(=O)c1c(OC(C)=O)cc(C(=O)O)cc1C2=O
  A = -13% | B = ? | C = 0% | D = -3% | E = 21µM* | F = 10%
#12 CCN(Cc1ccncc1)Cc1ccc2c(c1)CN(C(=O)c1ccc(C)cc1)CCO2
  A = / | B = / | C = / | D = -4% | E = / | F = /
#13 CCCn1nc([N+](=O)[O-])c(C(C#N)c2nc3ccccc3o2)c(Cl)c1=O (configuration not stated)
  A = -4% | B = 10% | C = 5% | D = -6% | E = ? | F = 12%
#14 CCn1nc([N+](=O)[O-])c(C(C#N)c2nc3cc(C(F)(F)F)ccc3s2)c(Cl)c1=O (configuration not stated)
  A = -9% | B = 8.2µM* | C = -3% | D = ? | E = ? | F = 21%
#15 COc1ccc(C)cc1-n1nnnc1SCc1cc(=O)n2cc(C)ccc2n1
  A = 2% | B = 13µM* | C = 0% | D = -6% | E = -21% | F = 15%

Continuation:
Abbreviations – A = PTAP TSG101 blk; B = Nrf2 block; C = Nrf2 ARE act; D = GRP78 ERSR act; E = A549 viability; F = miR-21 reporter
#16 COc1ccc(C)cc1-n1nnnc1SCc1csc(C)n1
  A = 1% | B = -15% | C = 0% | D = -4% | E = -3% | F = -7%
#17 Cc1cc2c(c(-c3nc4ccccc4s3)c1)OC(CNC(=O)c1occc1C)C2 (configuration not stated)
  A = / | B = / | C = / | D = -2% | E = / | F = /
#18 Cc1cccc(C)c1NC(=S)NCCSc1ccc(Cl)cc1
  A = -1% | B = 26µM* | C = 0% | D = -5% | E = ? | F = 7%
#19 C=C1C(=O)OC2C=C(CO)C3OC3C3OC3(C)CC(OC(=O)/C(=C/C)COC(C)=O)C12 (configuration not stated)
  A = -2% | B = 23µM* | C = ? | D = -14% | E = ? | F = /
#20 CC(=O)OCC1=C[C@@H]2OC(=O)C3=CO[C@@H](O[C@@H]4O[C@H](CO)[C@@H](O)[C@H](O)[C@H]4O)[C@H]1[C@@H]32
  A = -5% | B = 24% | C = 0% | D = -2% | E = -2% | F = /
#21 O=C(c1cccc(F)c1F)N1CCOc2ccc(CN3CCN(Cc4ccccn4)CC3)cc2C1
  A = / | B = / | C = / | D = -2% | E = / | F = /
#22 CC(=O)c1c(N2CCN(Cc3ccccc3)CC2)nc(=S)n(Cc2ccccc2)c1C
  A = 2% | B = 21µM* | C = 1% | D = -1% | E = ? | F = -6%
#23 CC(=O)c1c(N2CCCCC2)nc(=S)n(Cc2ccccc2)c1C
  A = -1% | B = -11% | C = 0% | D = -2% | E = 2% | F = 0%
#24 O=C(N/N=C/c1c[nH]c2ccccc12)c1cc(-c2ccc(-c3ccccc3)cc2)n[nH]1
  A = -1% | B = ? | C = 18% | D = -5% | E = 18µM* | F = 0%
#25 CCOC(=O)c1c(-c2ccc(F)cc2)csc1/N=C/N(C)C
  A = 2% | B = 16µM* | C = 3% | D = -3% | E = ? | F = -20%
#26 CCOC(=O)c1c(-c2ccc(C)cc2)csc1/N=C/N(C)C
  A = -6% | B = -13% | C = 9% | D = 2% | E = 2% | F = 3%
#27 CC(C)NC(=O)[C@@H]1C[C@@H](Sc2ccccn2)CN1C1CCN(C)CC1
  A = / | B = / | C = / | D = -3% | E = / | F = /
#28 Cc1cc(C)c(C#N)c(SCC(=O)c2ccccc2)n1
  A = 0% | B = 21% | C = 2.8µM* | D = -3% | E = 8% | F = -17%
#29 Cc1cc(C)c(C#N)c(SCC(=O)c2cccs2)n1
  A = 2% | B = 13% | C = ? | D = 3% | E = 6% | F = -27%
#30 Cc1cc(C)c2c(n1)NCCC2
  A = / | B = / | C = / | D = -2% | E = / | F = /

From compound 1 up to 4, as listed above:
Abbreviations – A = PTAP TSG101 blk; B = Nrf2 block; C = Nrf2 ARE act; D = GRP78 ERSR act; E = A549 viability; F = miR-21 reporter
#1 O=C(C[C@H]1C[C@H](C(=O)N2CCCCC2)[C@@]2(CCc3ccccc3)c3[nH]c4ccc(Cl)cc4c3CCN2C1=O)NCCc1ccccn1
  A = -2% | B = 21µM* | C = 0% | D = 1% | E = ? | F = /
#2 COc1ccc2[nH]c3c(c2c1)CCN1C(=O)C(CC(=O)NCc2ccco2)C[C@H](C(=O)N2CCCCC2)[C@@]31CCc1ccccc1 (some centres not stated)
  A = -4% | B = 23µM* | C = -1% | D = -2% | E = -26% | F = /
#3 COCCCNC(=O)CC1C[C@H](C(=O)N2CCCCC2)[C@@]2(CCc3ccccc3)c3[nH]c4ccc(OC)cc4c3CCN2C1=O (some centres not stated)
  A = -1% | B = -20% | C = 0% | D = -1% | E = -10% | F = /
#4 CC(C)Cc1nc2cc(NS(=O)(=O)N(C)C)cc(C(=O)N3CC4(C)CC3CC(C)(C)C4)c2n1C (configuration not stated)
  A = / | B = / | C = / | D = -3% | E = / | F = /

(further entries)
Abbreviations – A = PTAP TSG101 blk; B = Nrf2 block; C = Nrf2 ARE act; D = GRP78 ERSR act; E = A549 viability; F = miR-21 reporter
#31 CCCC(=O)O[C@]1(C(=O)COC(=O)CC)[C@@H](C)C[C@H]2[C@@H]3CCC4=CC(=O)C=C[C@@]4(C)[C@@]3(F)[C@H](O)C[C@@]21C
  A = / | B = / | C = / | D = -3% | E = / | F = /
#32 COc1ccc(C(=O)/C(C#N)=N/Nc2ccccc2[N+](=O)[O-])cc1
  A = -3% | B = -9% | C = -1% | D = 1% | E = 1% | F = 23%
#33 N#C/C(=N\Nc1ccc(Cl)cc1)C(=O)c1ccccc1
  A = -7% | B = 15µM* | C = 11% | D = -1% | E = 16µM* | F = 23%
#34 COc1ccc(C(=O)/C(C#N)=N/Nc2ccc([N+](=O)[O-])cc2)cc1
  A = -1% | B = 2.6µM* | C = -1% | D = -3% | E = ? | F = 23%
#35 CCCCNC(=O)c1sc2ncnc(NCC3CCCO3)c2c1C (configuration not stated)
  A = / | B = / | C = / | D = -4% | E = / | F = /
#36 CCOc1ccccc1NC(=O)CSc1ccc(-c2sc(C)nc2C)nn1
  A = 2% | B = 21µM* | C = 6% | D = -2% | E = 3% | F = 6%
#37 Cc1nc(C)c(-c2ccc(SCC(=O)Nc3cccc(F)c3)nn2)s1
  A = 0% | B = 15µM* | C = 4% | D = 0% | E = ? | F = 7%
#38 COc1ccccc1NC(=O)CSc1ccc(-c2sc(C)nc2C)nn1
  A = / | B = / | C = 6% | D = -2% | E = 0% | F = -16%
#39 Cc1ccc2c(/C=C/c3c[nH]c4ccccc34)ccnc2c1C
  A = / | B = / | C = / | D = -1% | E = / | F = /
#40 CC(C)CC(NC(=O)CNC(=O)C(Cc1ccc(O)cc1)NC(=O)C(CO)NC(=O)C(Cc1c[nH]c2ccccc12)NC(=O)C(Cc1cnc[nH]1)NC(=O)C1CCC(=O)N1)C(=O)NC(CCCN=C(N)N)C(=O)N1CCCC1C(=O)NCC(N)=O (configuration not stated)
  A = / | B = / | C = / | D = -4% | E = / | F = /
#41 O=C(NCc1ccco1)c1nc2ccccc2s1
  A = -2% | B = ? | C = 13µM* | D = 0% | E = 0%[1.84 µM] | F = -29%
#42 c1coc(-c2nc3ccccc3s2)c1
  A = -2% | B = ? | C = 11µM* | D = 2% | E = 0% | F = /
